Measurements reported in article PMC2943425 (Journal of medicinal chemistry, 2010).

Target: human δ-opioid receptor (Homo sapiens, UniProt P41143)
Experiment: Radioligand binding, [3H]DPDPE competition, HN9.10 cell membranes

Tyr^1-D-Ala^2-Gly^3-Phe^4-Met^5-Pro^6-Leu^7-Trp^8-O-[3′,5′-(CF3)2-Bzl] [TY005]
δ-selectivity of δ/μ opioid agonist lead compounds: up to 25 fold
